# Measured values reported in PMC4040926, “Re-examining how complexin inhibits neurotransmitter release” (eLife, 2014).
# Chains of the proteins cited; added tags and fusions are not shown. Residues count along the entry.
# UniProt P63045, 29-60, chain 1 of 4: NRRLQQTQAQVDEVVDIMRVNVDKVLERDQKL
# UniProt P63045, 29-93, chain 1 of 4: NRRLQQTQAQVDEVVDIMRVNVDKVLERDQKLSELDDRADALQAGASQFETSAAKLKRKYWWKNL
# SNARE complex containing synaptobrevin truncated at residue 60, UniProt P32851, 191-253, chain 2 of 4: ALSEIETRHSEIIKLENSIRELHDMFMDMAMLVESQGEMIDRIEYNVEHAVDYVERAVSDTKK
# SNARE complex containing synaptobrevin truncated at residue 60, UniProt P60880, 141-203, chain 4 of 4: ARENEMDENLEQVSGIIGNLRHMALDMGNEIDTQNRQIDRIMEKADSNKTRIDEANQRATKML
# SNARE complex containing synaptobrevin truncated at residue 60, UniProt P60880, 11-82, chain 3 of 4: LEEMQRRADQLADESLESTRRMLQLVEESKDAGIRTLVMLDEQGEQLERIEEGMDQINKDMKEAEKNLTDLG
# Experiments:
# Conditions in all cases: both partners purified
# [1] = biological target: T1, SNARE complex containing synaptobrevin truncated at residue 60 (rat | human, UniProt P63045 29-60; P32851 191-253; P60880 11-82; P60880 141-203); assay: ITC; competition: 200 μM CpxI fragment titrated into 10-15 μM SCΔ60 with 1.5 equivalents of CpxI(47-134); 37°C, PBS pH 7.4 with 0.25 mM TCEP; apparent constants from a single-site model
# [2] = biological target: non-truncated minimal SNARE complex (SNARE motifs of synaptobrevin, syntaxin-1 and SNAP-25) (rat | human, UniProt P63045 29-93; P32851 191-253; P60880 11-82; P60880 141-203); assay: ITC; direct titration: 200 μM CpxI(47-134) into 10-15 μM SNARE complex in the chamber; 37°C, PBS pH 7.4 with 0.25 mM TCEP; single-site model
# [3] = biological target: T1, SNARE complex containing synaptobrevin …; assay: as above
apparent Kd [1],apparent dH [1],Kd [2],dH [2],stoichiometry N [2],Kd [3],dH [3],stoichiometry N [3],Binder
3.73 ± 0.57 µM,-5.5 kcal/mol,339 ± 9 nM,-32.6 kcal/mol,0.95,2390 ± 190 nM,-19.5 kcal/mol,0.92,"CpxI(47-134), rat complexin I central helix plus C-terminus (lacks the accessory helix) (domain or fragment, UniProt P63041 47-134, looked up, source: E. coli, purified) ERKAKYAKMEAEREVMRQGIRDKYGIKKKEEREAEAQAAMEANSEGSLTRPKKAIPPGCGDEPEEEDESILDTVIKYLPGPLQDMFKK"
4.03 ± 0.89 µM,-5.1 kcal/mol,–,–,–,–,–,–,"CpxI(26-83) D27L, E34F, R37A superclamp mutant (domain or fragment, rat, UniProt P63041 26-83, looked up, complexin I (CpxI), rat, residues 26-83, superclamp mutant; Made from the rat CpxI(26-83) vector; Uniformly 2H,15N-labelled where it is the observed species in NMR; also called CpxI(26-83)supcl; Cpx(26-83)supcl; source: E. coli, purified) KLPDAAKKFEEAQEALRQAEEERKAKYAKMEAEREVMRQGIRDKYGIKKKEEREAEAQ"
